By UniProt entry, the sequences of proteins in these tests, tags left out.
UniProt P50052, whole entry: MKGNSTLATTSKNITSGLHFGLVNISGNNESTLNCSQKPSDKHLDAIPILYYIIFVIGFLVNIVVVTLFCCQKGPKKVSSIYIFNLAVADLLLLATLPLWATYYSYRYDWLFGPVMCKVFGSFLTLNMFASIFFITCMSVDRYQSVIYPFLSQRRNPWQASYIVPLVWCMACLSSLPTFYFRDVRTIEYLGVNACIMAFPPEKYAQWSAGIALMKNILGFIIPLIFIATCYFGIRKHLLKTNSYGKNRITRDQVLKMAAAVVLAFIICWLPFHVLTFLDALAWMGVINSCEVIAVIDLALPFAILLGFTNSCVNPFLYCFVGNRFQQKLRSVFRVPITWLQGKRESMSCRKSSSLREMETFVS

According to patent publication EP4847503A1, “TETRAZOLE COMPOUND, PHARMACEUTICAL COMPOSITION THEREOF AND USE THEREOF” (dated 2026):

Key:
[1] = tested on: mouse selective nerve injury model; experiment: Analgesic effect in mouse selective nerve injury model (mechanical allodynia, von Frey filaments); conditions: 10 mg/kg p.o. single dose, 1, 2 and 4 hours after administration; larger AUC = better analgesic effect
Experimental: Test Example 5 Study on the analgesic effect of the compounds of the present invention on inhibiting pain in a mouse selective nerve injury model
A 5% DMSO + 10% Solutol + 85% Saline solution was used.
Experimental animals: C57BL/6 mice, weighing 18-22 g, male, purchased from Beijing Vital River Laboratory Animal Technology Co., Ltd.
• (1) The surgical procedure was performed under aseptic conditions. • (2) Surgical instruments (scissors, forceps, scalpels, surgical cotton, and sutures) were sterilized before surgery. • (3) The animals were anesthetized with Zoletil 50 (50 mg/kg) + xylazine hydrochloride injection (8 mg/kg) (intraperitoneal injection, 2.5 mL/kg). The toes of the animals were pinched to confirm complete anesthesia before surgery; an ophthalmic ointment was applied to the eyes of the animals to prevent corneal drying. • (4) The hair in the surgical area of the animals was shaved, and the skin was disinfected three times with iodophor and 70% ethanol; the surgery was started after the skin dried. • (5) The sciatic nerve and its three distal branches (the tibial, common peroneal, and sural nerves) were exposed. The tibial and common peroneal nerves were transected using ophthalmic scissors, and the sural nerve was spared. • (6) The wound was sutured. • (7) The surgical instruments were cleaned and sterilized using a hot bead sterilizer. • (8) After surgery, the animals were placed on a heating pad, and 1 mL of normal saline was injected subcutaneously to prevent dehydration. After the animals were fully awake (able to move freely), they were returned to their cages.
On days 4-6 post-modeling, the animals were placed in the testing environment for habituation for 30 minutes/day for 3 consecutive days. On day 7 post-modeling, the baseline measurement of mechanical allodynia was performed on the modeled animals.
The mice in each group were given a single dose of the corresponding drug via intraperitoneal or oral administration at 10 mL/kg according to the experimental protocol.
On day 8 post-modeling, the mechanical allodynia test was performed on the left hind paw of the mice at 1, 2, and 4 hours after administration.
The mice were placed individually in a Plexiglas box with a wire mesh floor to ensure that the paws of the mice could be tested. The mice were allowed to habituate for 15 minutes before the test.
After habituation, the test was performed using testing filaments on the central plantar surface of the left hind paw of the mice. The testing filaments included 8 testing strengths: 2.36 (0.02 g), 2.44 (0.04 g), 2.83 (0.07 g), 3.22 (0.16 g), 3.61 (0.4 g), 3.84 (0.6 g), 4.08 (1 g), and 4.17 (1.4 g). […] During testing, a rapid paw withdrawal by the animal was recorded as a pain response. Paw withdrawal when the test filament was removed from the animal's skin was also recorded as a pain response. If the animal moved or walked around, it was not recorded as a pain response, and the test should be repeated. […]
Mechanical allodynia is expressed as the paw withdrawal threshold (PWT) in the mouse behavioral test, which is calculated according to the following formula: • 50% response threshold (g)= (10^(Xf+kδ)/10,000 • Xf=value of the final testing filament used in the test • k = tabular value (Chaplan et al. 1994, page 62) • δ = mean difference
Data were analyzed using one-way or two-way analysis of variance (ANOVA) followed by Dunnett's multiple comparisons test in Prism software (GraphPad Software, Inc.). […]

AT2 receptor = AT2 receptor (Homo sapiens, UniProt P50052); experiment: AT2R Binding assay (Tag-lite HTRF, affinity for AT2 receptor); conditions: read-out: AT2R IC50; Tag-lite Angiotensin AT2 labeled Cells, 25 °C, 1 hour

| IC50 (AT2 receptor) | SMILES | Mean AUC value (AUC0-4h of analgesic effect, paw withdrawal threshold) [1] |
| --- | --- | --- |
| – | CC(C)Cc1cc(F)c(-c2nn[nH]n2)c(N2CCN(Cc3cccnn3)[C@@H](C)C2)c1 | 1.826 |
| 1.9 nM | CC(C)Cc1cc(NC2CC(F)(F)C2)c(-c2nn[nH]n2)c(N2CCN(Cc3cccnn3)[C@@H](C)C2)c1 | 3.027 |
